Assay outcomes (PubChem BioAssay)
In the library only some 2.2% were active in any assay of this set; here they are far more common.
Yeast UUG start: alters start codon recognition fidelity in yeast. S. cerevisiae UUG-firefly luciferase reporter, luminescence/redox ratio. AID 602363. activity score, % at 18.7 µM. hit rate 0.13% among 350,000;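 active = replicate mean at a twofold rise or more, about +100% in these data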;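 note: firefly luciferase made from a UUG start codon reports start codon fidelity; reporter light over untreated wells divided by growth signal over untreated wells; some hits fall short of that in this replicate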
FGF22 binding: binders of human FGF22 protein, primary screen, FGF22 synaptogenesis inhibitor project, biophysical, thermal shift, single point; Fibroblast growth factor 22 (Homo sapiens), Q9HCT0; recombinant FGF22 thermal shift, SYPRO orange fluorescence; percent of sucrose octasulfate shift, DMSO zero; activity (Tm shift, normalised), % at 9.99 µM; hit rate 1.5% among 340,000; AID 651658, 2012;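 active = mean Tm shift, scaled 0 neutral to 100 positive control, at about 1.3% or above, every replicate too, limit read from the data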
S100A4 MyoIIA: inhibitors of S100A4-myosin IIA peptide binding, primary screen, biochemical, fluorescence polarization, TAMRA-MyoIIA peptide. Protein S100-A4 (Homo sapiens), P26447. inhibition, % at 10.7 µM. hit rate 0.14% among 360,000. AID 652163, 2013;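 active = mean inhibition of at least 70% across replicates, with every replicate also reaching that level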
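Material: human S100A4 monomer with TAMRA-labelled myosin IIA peptide; buffer or medium: HEPES pH 7.2 with CaCl2, KCl, NaCl, DTT, Triton; compound dosing: one concentration per compound; schedule: 5 min incubation before reading; benchmarks: neutral control DMSO, positive control TFP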
ERp5 block: inhibitors of ERp5-driven insulin aggregation, primary screen, biochemical, turbidity, absorbance 650 nm, single point; Protein disulfide-isomerase A6 (Homo sapiens), Q15084; 90 min; inhibition, % at 9.99 µM; hit rate 0.05% among 350,000; AID 651711, 2012;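 active = mean replicate inhibition above about 25%, with every replicate also reaching it, limit read from the data, passing the limit was not always enough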
PDI inh: inhibitors of human PDI, primary screen, biochemical, turbidity, single point, plate reader; Protein disulfide-isomerase (Homo sapiens), P07237; PDI insulin aggregation turbidity, A650, 90 min; inhibition, % at 10 µM; hit rate 0.052% among 350,000; AID 588391, 2011;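 active = mean inhibition across replicates of 30% or more, whatever share of single replicates reach that level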
SIRT5 block: SIRT5 desuccinylase inhibitors, primary screen, biochemical, fluorescence imaging, single point, set 5; NAD-dependent protein deacylase sirtuin-5, mitochondrial (Homo sapiens), Q9NXA8; Purified SirT5, succinyl-peptide AMC, trypsin-coupled fluorescence; inhibition, % at 15 µM; hit rate 1.1% among 330,000; AID 652115, 2013; in the data active = inhibition above about 15%
An asterisk follows results filed as active; nt = no result.

Amino acid sequences for entries named in this document (tags omitted).
Protein disulfide-isomerase A6 (Homo sapiens), Q15084, UniProt Q15084, whole entry, looked up: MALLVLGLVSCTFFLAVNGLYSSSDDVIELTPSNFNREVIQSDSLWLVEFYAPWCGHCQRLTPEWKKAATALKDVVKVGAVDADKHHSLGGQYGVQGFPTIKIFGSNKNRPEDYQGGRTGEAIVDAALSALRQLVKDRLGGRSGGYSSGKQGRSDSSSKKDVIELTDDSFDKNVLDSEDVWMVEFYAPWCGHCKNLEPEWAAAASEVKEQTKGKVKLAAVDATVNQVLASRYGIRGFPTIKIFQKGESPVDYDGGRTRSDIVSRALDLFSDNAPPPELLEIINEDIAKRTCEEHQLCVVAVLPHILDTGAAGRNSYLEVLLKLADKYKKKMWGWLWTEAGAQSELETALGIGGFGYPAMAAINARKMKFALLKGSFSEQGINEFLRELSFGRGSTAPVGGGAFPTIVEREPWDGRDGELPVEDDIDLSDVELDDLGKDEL

Start of the data: the first three compounds as a preview:
SMILES	Yeast UUG start	FGF22 binding	S100A4 MyoIIA	ERp5 block	PDI inh	SIRT5 block
O=C(COC(=O)C1CC(=O)N(Cc2ccccc2)C1)Nc1ccc([N+](=O)[O-])cc1Br (stereo unspecified)	-7.4	43.1*	-2.9	-11.2	7.2	nt
O=C(C[C@H]1C=C[C@H](NC(=O)Nc2cc(F)ccc2F)[C@@H](CO)O1)NCCCN1CCOCC1	21.2	-0.2	11.7	-4.1	nt	13.2
COCCn1c(SCC(=O)N2CCC(C)CC2)nc2c(c1=O)SCC2	18.4	0.7	10.4	2.5	-3.8	25.2*

This part in full (from the top)
SMILES	Yeast UUG start	FGF22 binding	S100A4 MyoIIA	ERp5 block	PDI inh	SIRT5 block
O=C(COC(=O)C1CC(=O)N(Cc2ccccc2)C1)Nc1ccc([N+](=O)[O-])cc1Br (stereo unspecified)	-7.4	43.1*	-2.9	-11.2	7.2	nt
O=C(C[C@H]1C=C[C@H](NC(=O)Nc2cc(F)ccc2F)[C@@H](CO)O1)NCCCN1CCOCC1	21.2	-0.2	11.7	-4.1	nt	13.2
COCCn1c(SCC(=O)N2CCC(C)CC2)nc2c(c1=O)SCC2	18.4	0.7	10.4	2.5	-3.8	25.2*
Cc1ccnc(N2CCC(C(=O)NNC(=O)COc3cccc4ccccc34)CC2)n1	nt	43.5*	-1.7	-3.3	-10.5	0.5
COc1ccc(CN2CCN(CC=C(C)C)C(CCO)C2)cc1Cn1cccn1 (stereo unspecified)	nt	43.6*	-2.3	-3.9	-6.8	-0.2
CCOc1cc(CN2CCN(CCc3ccccc3)C(CCO)C2)ccc1OC (stereo unspecified)	nt	0.1	-4.8	-1.0	-5.5	0.6
COc1ccc(CN2CCN(CCc3ccccc3)C(CCO)C2)cc1Cn1cncn1 (stereo unspecified)	-5.1	43.9*	-2.3	3.2	-16.5	0.9
CC(C)=CCN1CCN(Cc2ccc3nsnc3c2)CC1CCO (stereo unspecified)	nt	42.9*	0.1	4.7	2.1	0.6
CC(C)CCN1CCN(Cc2ccc3nsnc3c2)CC1CCO (stereo unspecified)	nt	nt	nt	nt	7.0	nt
CCOCC(=O)Nc1cc(C(=O)NCCc2ccccc2)ccc1Cl	nt	10.9*	-3.5	1.0	-1.8	-2.5
COCC(=O)Nc1cc(C(=O)NCCc2ccccc2)ccc1Cl	-18.5	-0.1	-1.5	-0.7	0.1	nt
C[C@H]1CN([C@@H](C)CO)S(=O)(=O)c2ccc(/C=C/c3ccccc3)cc2O[C@@H]1CN(C)C(=O)CN1CCOCC1	nt	-0.3	-9.6	1.3	nt	1.8
O=C(Nc1cc(S(=O)(=O)N2CCOCC2)ccc1N1CCOCC1)c1cc2c(s1)CCC2	nt	-0.2	-4.3	1.5	3.9	16.6*
C[C@@H]1CN([C@H](C)CO)C(=O)c2cc(NC(=O)Nc3ccccc3)ccc2O[C@@H]1CN(C)Cc1ccccc1	-3.9	-0.2	7.7	-5.0	nt	17.8*
C[C@H](CO)N1C[C@H](C)[C@@H](CN(C)Cc2ccc(Oc3ccccc3)cc2)Oc2ccc(NC(=O)C3CC3)cc2C1=O	4.3	0.0	-2.5	3.1	nt	18.1*
C[C@@H]1CN([C@@H](C)CO)C(=O)c2cc(NC(=O)Nc3ccccc3)ccc2O[C@@H]1CN(C)Cc1ccc(Oc2ccccc2)cc1	8.6	-0.2	0.6	1.5	nt	17.3*
C[C@@H]1CN([C@@H](C)CO)C(=O)c2cc(NC(=O)c3ccncc3)ccc2O[C@H]1CN(C)Cc1ccc(Oc2ccccc2)cc1	2.9	-0.6	-10.0	-1.5	nt	16.4*
C[C@H](CO)N1C[C@H](C)[C@H](CN(C)Cc2ccccc2)Oc2ccc(NC(=O)Nc3ccccc3)cc2C1=O	18.7	0.1	-8.4	10.8	nt	2.5
C[C@H](CO)N1C[C@H](C)[C@@H](CN(C)Cc2ccc(Oc3ccccc3)cc2)Oc2ccc(NC(=O)Nc3ccccc3)cc2C1=O	25.7	-0.5	21.3	-1.4	nt	10.5
CCCC#Cc1ccc([C@@H]2[C@@H](CO)N3C(=O)CN(C(=O)c4cccnc4)C[C@H]23)cc1	nt	nt	3.7	-0.3	nt	1.2
COc1ccc(-c2cnc3c(c2)C(=O)N([C@@H](C)CO)C[C@@H](C)[C@H](CN(C)C(=O)C2CC2)O3)cc1	44.6	nt	nt	nt	nt	nt
CNC(=O)C[C@H]1CC[C@@H]2[C@H](COc3ccc(NC(=O)Nc4cc(C)cc(C)c4)cc3C(=O)N2C)O1	-8.2	0.0	1.8	nt	nt	-2.8
C[C@H]1CN([C@@H](C)CO)C(=O)c2cc(NC(=O)Nc3ccc(C(F)(F)F)cc3)ccc2O[C@@H]1CN(C)Cc1ccccc1	-0.8	26.9*	-17.2	-4.4	nt	-0.1
